The text below walks through data of patent US20040072240A1.

This assay concerns the target HLA A2.1 molecule (human). Kind of assay: T2 cells, flow cytometry (BB7.2); reference HIVpol 589. (A flow cytometer gives signals particle by particle.)

For the molecule ALIHHNTHL (modifications not checked) [HER-2/neu 466], the RA (relative affinity) amounted to 4.8.
